Bioassay records from PubChem BioAssay.
miR-21 reporter: raises the signal of a miR-21 reporter | HeLa miR-21 FLuc reporter, luciferase, 48 h | Potency, µM (doses to about 38.3 µM), for the others: at the highest dose reporter change, positive = more light | 340,000 tested, under 10 active | AID 2288; active = well fitted rising curve with a large enough effect; inconclusive = small, poorly fitted or top-dose-only effect; inactive = no such curve, though single readings can be large or run the other way;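 also: % of control where 0% means no effect; miR-21 action dims this reporter so a rising signal means less miR-21 action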
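HeLa cells endogenously expressing miR-21, stably carrying CMV-driven firefly luciferase with a downstream miR-21 binding site, 2000 cells/well. Titrations up to approximately 40 uM, 48 hours; luciferase luminescence read.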
A549 tox-1: A549 cytotoxicity, counter-screen for Nrf2 inhibitors | 390,000 compounds, 0.16% hits | Potency, µM (doses to about 46 µM), inactives show top-dose activity change, negative = cytotoxicity, usual class: inhibitors | A549 ARE-Fluc cells, CellTiter-Fluor viability, 18-24 h | AID 504648; note: potency is the fitted concentration of half-maximal effect; % is set by controls: 0 for no effect and ±100 for the full control effect
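A549 ARE_Fluc cells in 5% FBS OPTI-MEM were exposed to compounds in concentration-response for 18-24 h at 37 deg C. Viability was read by CellTiter-Fluor fluorescence (Ex 405/Em 525) after 30 min, before the luciferase read.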
IL2 activator: IL-2 activation. IL-2 activation reporter assay, cell-based qHTS; stimulated with anti-CD3/CD4/CD28 beads; in transgenic mouse T cells. activation, % (series mostly up to about 46 µM). 360,000 compounds, 0.065% hits; in the data active = activation above about 50%; inconclusive = mostly about 30% to 49%; note: 0% is about no effect
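Quantitative HTS in unstimulated transgenic mouse T cells, with memory T cells as non-tolerant control and PMA/ionomycin as tolerance-bypass control. Compound pretreatment lasted 60 minutes before 18 h bead stimulation; EGFP/DsRed fluorescence read.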
Nrf2 activator: Nrf2 pathway activation. AREc32 ARE-luciferase reporter (MCF7-derived line), luminescence, 24 h. Potency, µM (top dose mostly 46.1 µM), inactives show at the highest dose activation, usual class: activators. 410,000 compounds, 0.31% hits. AID 624171; note: potency is the fitted concentration of half-maximal effect; % of control where 0% means no effect; nearly all actives have a fitted effect of over 65% in size
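Each well held 1000 AREc32 cells, which were incubated with compound for 24 hr at 37 deg C after overnight attachment, and ARE reporter activity was quantified by firefly luciferase luminescence.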
ClpP mod: qHTS Assay for Activators of ClpP; purified B. subtilis ClpP, FRET peptide cleavage, 20 min; Potency, µM (titrated, usually from 57.5 µM), inactives show at the top dose activity change, negative = active; 340,000 compounds, 1.9% hits; AID 651965, 2013; active = well fitted falling curve with a large enough effect; inconclusive = small, poorly fitted or top-dose-only effect; inactive = no such curve, though single readings can be large or run the other way; note: potency is the fitted concentration of half-maximal effect; the source files actives as falling curves though it sought activators and does not explain the sign; nearly all actives have a fitted effect of over 65% in size
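ClpP 10 microg/mL final, pH 8 Tris/KCl buffer with BSA, glycerol, Tween-20; compound pinned in; FRET-FV substrate; RT 20 min; Ex320/Em430; ΔFRET vs ADEP 5.8 microM, DMSO, no enzyme.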
Nrf2 block: blocks Nrf2 signaling; Potency, µM (titrated, usually from 46 µM), inactives show at the top dose activity change, negative = inhibition, most hits filed as inhibitors; 360,000 compounds, 2.1% hits; A549 ARE-Fluc reporter, luciferase luminescence, 18-24 h; note: potency is the fitted concentration of half-maximal effect; % is set by controls: 0 for no effect and ±100 for the full control effect; nearly all actives have a fitted effect of over 60% in size
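A549 ARE_Fluc cells (5000/well, 5% FBS OPTI-MEM) pre-incubated 2 h, then treated with compounds 18-24 h at 37C/5% CO2 in concentration-response. CellTiter-Fluor viability read first; BugLite luciferase luminescence after 15 min at room temperature gives Nrf2 activity.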
FLuc counter 3: firefly luciferase inhibition, Nrf2 hit validation. Potency, µM (doses to about 57.5 µM), inactives show top-dose activity change, negative = inhibition, actives largely listed as inhibitors. 1,400 compounds, 4% hits. shares compounds with Nrf2 block. purified firefly luciferase, luminescence inhibition; note: potency is the fitted concentration of half-maximal effect; % is set by controls: 0 for no effect and ±100 for the full control effect; nearly all actives have a fitted effect of over 65% in size
A549 tox-2: toxic to A549 ARE-Fluc cells in Nrf2 counterscreen | shares compounds with Nrf2 block | A549 ARE-Fluc cells, cytotoxicity counterscreen | Potency, µM (highest dose often 46.1 µM), for inactives: top-dose activity change, negative = cytotoxicity, hits mostly inhibitors | 1,400 compounds, 2% hits;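 note: potency is the fitted concentration of half-maximal effect; cells exposed to compounds for 18 to 24 hours; % is set by controls: 0 for no effect and ±100 for the full control effect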
ARE-Fluc inh: reduces Nrf2 ARE reporter signal in A549 cells | shares compounds with Nrf2 block | A549 ARE-firefly luciferase reporter, luminescence | Potency, µM (doses to about 46.1 µM), for inactives: at the top dose activity change, negative = inhibition, hits mostly inhibitors | 1,400 compounds, 74% hits; note: potency is the fitted concentration of half-maximal effect; % is set by controls: 0 for no effect and ±100 for the full control effect; nearly all actives have a fitted effect of over 65% in size
* hit, by the source's call; ? = inconclusive; . = not tested or not shown. Rows were chosen to be rich in hits. Some 3.7% of all compounds tested hit in one or more screens of this group. Unless noted, calls come from the whole dose curve; as a rule, active = well fitted curve in the direction sought with a large enough effect; inconclusive = small, poorly fitted or top-dose-only effect, or another doubt; inactive = no such curve, though single readings can be large; an effect the other way counts as inactive or inconclusive.

Field names: A = miR-21 reporter; B = A549 tox-1; C = IL2 activator; D = Nrf2 activator; E = ClpP mod; F = Nrf2 block; G = FLuc counter 3; H = A549 tox-2; I = ARE-Fluc inh
(1) O=C1c2cccc3cc([N+](=O)[O-])cc(c23)C(=O)N1CCN1CCCC1
  A = ?; B = ?; C = -1; D = -2%; E = .; F = 1.8µM*; G = -1%; H = ?; I = ?
(2) Cc1c(C(C)NC(=O)c2cc(COc3cccc4cnccc34)on2)cnn1C (stereo unspecified)
  A = ?; B = -17%; C = -1; D = 0%; E = 4%; F = 8.2µM*; G = -14%; H = 1%; I = 7.3µM*
(3) O=C(CNc1cc(S(=O)(=O)N2CCCC2)ccc1OCC(F)(F)F)Nc1cc(Cl)cc(Cl)c1
  A = -1%; B = .; C = .; D = .; E = .; F = .; G = .; H = .; I = .
(4) O=C(CNc1cc(S(=O)(=O)N2CCCC2)ccc1OCC(F)(F)F)Nc1ccc(SC(F)F)cc1
  A = ?; B = ?; C = -3; D = 5%; E = -7%; F = 5.2µM*; G = -3%; H = -19%; I = ?
(5) O=C(c1ccc2c(c1)N(Cc1ccccc1F)C(=O)c1ccccc1S2=O)N1CCC(Cc2ccccc2)CC1 (stereo unspecified)
  A = 22%; B = -23%; C = .; D = -1%; E = -2%; F = ?; G = .; H = .; I = .
(6) CC(=O)O[C@]1(C(C)=O)CCC2C3C=C(C)C4=CC(=O)CC[C@]4(C)C3CC[C@@]21C (stereo partly specified)
  A = -8%; B = -7%; C = 3; D = 0%; E = 1%; F = 0.26µM*; G = -11%; H = -8%; I = 1.2µM*
(7) COc1ccc(C(=O)NC(=S)NNC(=O)COc2ccccc2)cc1
  A = 2%; B = 2%; C = 0; D = 0%; E = .; F = ?; G = .; H = .; I = .
(8) COc1ccc(C(=O)NC(=S)NNC(=O)c2cnccn2)cc1
  A = -4%; B = ?; C = 0; D = 0%; E = -2%; F = ?; G = ?; H = -27%; I = 5.8µM*
(9) O=C(NC(=S)NNC(=O)c1cnccn1)c1ccc(Cl)cc1
  A = -10%; B = -26%; C = 7; D = 0%; E = .; F = 5.8µM*; G = -11%; H = -14%; I = 5.8µM*
(10) Cc1ccc(NC(=O)c2cnn3c2NC(c2ccccc2)=CC3c2ccccc2)cc1 (stereo unspecified)
  A = 2%; B = -17%; C = .; D = 0%; E = -2%; F = ?; G = .; H = .; I = .
(11) COc1cccc(C2C=C(c3ccccc3)Nc3c(C(=O)Nc4ccccc4)cnn32)c1OC (stereo unspecified)
  A = -3%; B = -11%; C = .; D = 4%; E = 0%; F = 2.3µM*; G = 2%; H = -13%; I = ?
(12) CC1=C(C(=O)OCc2ccc3c(c2)OCO3)C(c2ccc(F)cc2)NC(=O)N1 (stereo unspecified)
  A = ?; B = -21%; C = -2; D = 1%; E = -1%; F = 4.1µM*; G = 1%; H = -11%; I = 8.2µM*
(13) CC1=C(C(=O)OCc2ccccc2)C(c2cccc(Br)c2)NC(=O)N1 (stereo unspecified)
  A = 0%; B = 0%; C = 1; D = 0%; E = -1%; F = -19%; G = .; H = .; I = .
(14) COc1ccc(COC(=O)C2=C(C)NC(=O)NC2c2cccc(Br)c2)cc1 (stereo unspecified)
  A = 13%; B = -5%; C = 2; D = 6%; E = 0%; F = ?; G = 1%; H = -4%; I = ?
(15) CC(NC(=O)C1CCN(S(=O)(=O)c2ccc3c(c2)oc(=O)n3C)CC1)c1ccccc1 (stereo unspecified)
  A = 1%; B = 9%; C = .; D = 0%; E = 0%; F = 1%; G = .; H = .; I = .
(16) COc1ccc(OC)c(NC(=O)CSc2ncnc3c2cnn3-c2ccccc2Cl)c1
  A = 7%; B = ?; C = -3; D = 3%; E = -3%; F = 4.6µM*; G = 0%; H = -15%; I = .
(17) COc1cc(NC(=O)CSc2ncnc3c2cnn3Cc2ccccc2)cc(OC)c1
  A = -2%; B = -12%; C = -1; D = 0%; E = 1%; F = ?; G = .; H = .; I = .
(18) COc1cccc(N2CCN(c3ncnc4c3nc3n4CCCCC3)CC2)c1
  A = ?; B = -28%; C = .; D = -2%; E = -3%; F = ?; G = .; H = .; I = .
(19) FC(F)(F)c1cccc(N2CCN(c3ncnc4c3nc3n4CCCC3)CC2)c1
  A = 20%; B = 0%; C = .; D = -3%; E = -3%; F = 1.6µM*; G = 2%; H = -11%; I = 2.1µM*
(20) Cc1noc2ncnc(N3CCN(c4cccc(C(F)(F)F)c4)CC3)c12
  A = 25%; B = -1%; C = .; D = -1%; E = -1%; F = 8.2µM*; G = 2%; H = -5%; I = 8.2µM*

Retrieved one by one from above, three records:
Field names: A = miR-21 reporter; B = A549 tox-1; C = IL2 activator; D = Nrf2 activator; E = ClpP mod; F = Nrf2 block; G = FLuc counter 3; H = A549 tox-2; I = ARE-Fluc inh
(16) COc1ccc(OC)c(NC(=O)CSc2ncnc3c2cnn3-c2ccccc2Cl)c1
  A = 7%; B = ?; C = -3; D = 3%; E = -3%; F = 4.6µM*; G = 0%; H = -15%; I = .
(12) CC1=C(C(=O)OCc2ccc3c(c2)OCO3)C(c2ccc(F)cc2)NC(=O)N1 (stereo unspecified)
  A = ?; B = -21%; C = -2; D = 1%; E = -1%; F = 4.1µM*; G = 1%; H = -11%; I = 8.2µM*
(13) CC1=C(C(=O)OCc2ccccc2)C(c2cccc(Br)c2)NC(=O)N1 (stereo unspecified)
  A = 0%; B = 0%; C = 1; D = 0%; E = -1%; F = -19%; G = .; H = .; I = .

The results go on:
Field names: A = miR-21 reporter; B = A549 tox-1; C = IL2 activator; D = Nrf2 activator; E = ClpP mod; F = Nrf2 block; G = FLuc counter 3; H = A549 tox-2; I = ARE-Fluc inh
(21) CCOC(=O)c1cccc(NC(=O)CCn2nc(C)c3c(C)n(-c4ccccc4)nc3c2=O)c1
  A = -5%; B = 8%; C = .; D = 0%; E = 0%; F = -9%; G = .; H = .; I = .
(22) Cc1ccc(CNc2c(C)c(C)nc3nncn23)cc1
  A = 22%; B = -7%; C = .; D = 4%; E = -3%; F = 3.7µM*; G = -1%; H = 1%; I = 4.1µM*
(23) COc1ccc(CCNC(=O)c2c(C)oc3ncn(C)c(=O)c23)c(OC)c1
  A = 3%; B = -1%; C = .; D = 0%; E = 0%; F = ?; G = .; H = .; I = .
(24) Cc1ccc(NC(=O)CN2C(=O)c3cccnc3Sc3ccccc32)cc1C
  A = -49%; B = 9%; C = .; D = 9%; E = -22%; F = ?; G = ?; H = 1%; I = 62%
(25) COc1ccc(NC(=O)CN2C(=O)c3cccnc3Sc3ccccc32)cc1OC
  A = -31%; B = -4%; C = .; D = 8%; E = -11%; F = 26%; G = .; H = .; I = .
(26) CN(C)c1ccc(/C=C/C(=O)c2ccc(O)cc2)cc1
  A = .; B = 4%; C = 7; D = 17%; E = -1%; F = 5.2µM*; G = 0.21µM*; H = 1%; I = 2.3µM*
(27) COc1ccc(-n2nc(C(=O)Nc3cc(OC)c(OC)c(OC)c3)c(=O)n(C)c2=O)cc1
  A = 1%; B = 4%; C = .; D = 4%; E = 0%; F = .; G = .; H = .; I = .
(28) CC1=[N+](C)c2c(ccc3cccnc23)C1(C)C
  A = ?; B = ?; C = 2; D = 7%; E = .; F = 2.1µM*; G = -8%; H = -2%; I = 2.6µM*
(29) C[n+]1ccccc1COc1ccc(C(C)(C)C)cc1
  A = 15%; B = ?; C = -4; D = 0%; E = -2%; F = 2.3µM*; G = -9%; H = -11%; I = 5.2µM*
(30) CC(C)(C)c1ccc(OCc2nc3ccccc3n2CCOc2ccccc2)cc1
  A = -19%; B = 10%; C = .; D = 1%; E = -4%; F = 19%; G = .; H = .; I = .
(31) O=C(CCS(=O)(=O)c1ccc(Br)s1)Nc1c(F)cccc1F
  A = -12%; B = 12%; C = .; D = 3%; E = -4%; F = -14%; G = .; H = .; I = .
(32) CN(c1ccc(OCC(=O)NCCc2ccccc2)cc1)S(=O)(=O)c1ccc(Cl)cc1
  A = .; B = 9%; C = 0; D = 3%; E = 1%; F = 19%; G = .; H = .; I = .
(33) CCOc1ccc(S(=O)(=O)N(C)c2ccc(OCC(=O)Nc3nc4ccccc4s3)cc2)cc1
  A = 27%; B = -12%; C = 0; D = 3%; E = -3%; F = 2.3µM*; G = 2%; H = -2%; I = 9.2µM*
